Results taken from PubChem BioAssay AID588475 (Sanford-Burnham Center for Chemical Genomics, 2011).
This is a selection; strong and weak results do not stand in their true shares. Calls of active or inactive are those of the source.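 The calls were made as follows: active = inhibition of the ligand-induced calcium signal above about 50% at the single tested concentration (limit read from the data); inactive = the rest.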

experiment: antagonists of CRF-BP/CRF-R2 complex, primary screen, cell-based, HEK293, calcium dye fluorescence, uHTS (AID 588475); settings: CRF-induced calcium fluorescence, at 11.8 µM, hits give high values

| SMILES | inhibition |
| --- | --- |
| CCC(=O)N(c1ccccc1)C1(COC)CCN(CCn2nnn(CC)c2=O)CC1 | inactive: 3.31% |
| CCC(=O)N(c1ccccc1)C1(COC)CCN(CCc2cccs2)CC1 | inactive: -5.95% |
